# This is a selection; strong and weak results do not stand in their true shares. Activity calls are given as the source filed them. Calls follow the shape of the dose curve; as a rule, active = well fitted curve in the direction sought with a large enough effect; inconclusive = small, poorly fitted or top-dose-only effect, or another doubt; inactive = no such curve, though single readings can be large or run the other way.
# Experiment: qHTS Assay for Modulators of miRNAs and/orActivators of miR-21;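 also: % of control where 0% means no effect; miR-21 action dims this reporter so a rising signal means less miR-21 action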
# Conditions: HeLa miR-21 FLuc reporter, luciferase, 48 h; at 38.3 µM (top of the series)
row,Structure (SMILES),"activity change, positive = activation"
1,COc1ccc(N/C(=N/P(=O)(N2CCOCC2)N2CCOCC2)N2CCOCC2)cc1,inactive: -1.69%
2,COc1cc(I)ccc1[As](=O)(O)O,inactive: 0.966%
3,COc1ccc2nc(NP(=O)(c3ccccc3)c3ccccc3)sc2c1,inactive: 0.484%
4,Cc1cc(=O)[nH]c(N[N+](=O)[O-])n1,inactive: 0.13%
5,CCN(CC)CCCOC(=O)C(O)(c1ccccc1)c1ccccc1,inactive: -1.87%
6,O=C(OC1CN2CCC1CC2)C12CC3CC(CC(C3)C1)C2 (stereo not given),inactive: -14.2%
7,Cc1c2c(nc3ccccc13)SC(C(Cl)Cl)C2 (stereo not given),inactive: -25.6%
8,Cc1cc(C)cc(OP(C)(N)=O)c1 (stereo not given),inactive: 0.376%
9,COc1ccc(OP(C)(=O)Nc2cccc(F)c2)cc1 (stereo not given),inactive: -1.48%
10,O=[N+]([O-])c1cc([N+](=O)[O-])c(-c2ccn[nH]2)s1,inactive: 9.5%
11,COc1ccccc1OP(C)(=O)Nc1cc(Cl)ccc1C (stereo not given),inactive: -4.31%
12,CC(C)NC(=O)NP(=O)(Oc1ccccc1)Oc1ccccc1,inactive: -1.6%
13,CCN(CC)C(=S)SC(NC=O)C(Cl)(Cl)Cl (stereo not given),inactive: -0.266%
14,Cc1ccc(NP(C)(=O)Oc2ccccc2)c(C)c1 (stereo not given),inactive: -8.17%
15,CC(C)c1ccc(OP(=O)(Nc2ccccn2)Oc2ccccc2F)cc1 (stereo not given),inactive: 8.12%
16,COc1ccccc1OP(C)(=O)Nc1ccc(C)cc1 (stereo not given),inactive: -5.63%
17,ClCCSc1nnc(-c2cccnc2)o1,inactive: -30.2%
18,CCOC(=O)c1ccc(NP(C)(=O)Oc2ccccc2)cc1 (stereo not given),inactive: -5.8%
19,Cc1ccc2nc3c(c(C)c2c1)CC(C(Cl)Cl)S3 (stereo not given),inactive: -50.7%
20,Cc1cccc(C)c1OP(C)(N)=O (stereo not given),inactive: -1.23%
21,Cc1ccc(OP(=O)(Nc2ccc([N+](=O)[O-])cn2)Oc2ccc(C)cc2)cc1,inactive: -4.04%
22,CC(C)(C)c1ccc(OP(C)(=O)Nc2ccc(SC(F)(F)F)cc2)cc1 (stereo not given),inactive: -8.79%

row,Structure (SMILES),"activity change, positive = activation"
1,C[As](=O)(O)c1cccc(C(=O)O)c1,inactive: -0.549%
2,O=[As](O)(c1ccc(O)cc1)c1ccccc1O,inactive: -0.843%
3,O=[N+]([O-])c1ccc(Nc2ccc(Oc3ccc([N+](=O)[O-])cc3[N+](=O)[O-])cc2)c([N+](=O)[O-])c1,inactive: -1.1%
4,CP(=O)(Nc1ccccc1Br)Oc1ccccc1 (stereo not given),inactive: -2.72%
5,COc1ccccc1OP(C)(=O)Nc1ccccc1 (stereo not given),inactive: -0.838%
6,O=P(Nc1ccccn1)(c1cccc2ccccc12)c1cccc2ccccc12,inactive: -9.41%
7,Cc1cc(SC(NC=O)C(Cl)(Cl)Cl)ncn1 (stereo not given),inactive: -3.23%
8,CCOC(=O)Nc1cccc([As](=O)(O)O)c1,inactive: -1.49%
9,CP(=S)(Nn1cnnc1)Oc1ccccc1 (stereo not given),inactive: -0.315%
10,Cc1cc(SC(NC(=O)c2ccccc2)C(Cl)(Cl)Cl)nc(C(C)C)n1 (stereo not given),inactive: -2.21%
11,CCCCOc1ccc(C(=O)NCC2(N3CCCCC3)CCCCC2)cc1OC,inactive: 0.393%
12,CCOC(=O)Nc1ccc([As](=O)(O)O)c(O)c1,inactive: 2.12%
13,CP(=O)(Nc1ccccn1)Oc1ccc(Cl)cc1 (stereo not given),inactive: -6.31%
14,CCC(C)N(CC(C)C)C(=S)SC(NC(C)=O)C(Cl)(Cl)Cl (stereo not given),inactive: 29.7%
15,CCOC(=O)c1ccc(NP(C)(=O)Oc2ccc(OC)cc2)cc1 (stereo not given),inactive: -9.75%
16,CCOC(=O)c1ccc(NC(=O)C(C)(CCl)SC)cc1 (stereo not given),inactive: -38.1%
17,CCOP(C)(=S)SCC(=O)NC(C)C(=O)O (stereo not given),inactive: -0.229%
18,O=C(OC1CN2CCC1CC2)c1cccc([N+](=O)[O-])c1 (stereo not given),inactive: -0.734%
19,O=C(Nc1ccncc1[N+](=O)[O-])c1ccc([N+](=O)[O-])cc1[N+](=O)[O-],inactive: 25%
20,Cc1cc(C)cc(OP(C)(=O)Nc2ccc(SC(F)(F)F)cc2)c1 (stereo not given),inactive: 3.91%
21,O=C(COc1ccccc1)OC1CN2CCC1CC2 (stereo not given),inactive: -3.37%
22,CP(=O)(NC(=O)Nc1ccccc1)Oc1ccccc1 (stereo not given),inactive: -0.319%

row,Structure (SMILES),"activity change, positive = activation"
1,CCc1ccc(OP(C)(=O)N2CCN(c3ccc([N+](=O)[O-])cc3)CC2)cc1 (stereo not given),inactive: 13%
2,CP(=O)(Oc1ccccc1)OC(c1ccccc1)C(F)(F)F (stereo not given),inactive: 3.16%
3,COP1(=S)c2c(C)nn(CCC#N)c2N=C(c2ccc(F)cc2)N1C (stereo not given),inactive: -1.6%
4,Cc1cccc(C)c1OP(C)(=O)Nc1ccc(SC(F)(F)F)cc1 (stereo not given),inactive: 19.3%
5,CP(=O)(Nc1ccc(SC(F)(F)F)cc1)Oc1ccc(Cl)cc1 (stereo not given),inactive: 8.12%
6,Cc1nc2ccc3ccccc3c2s1.O=[N+]([O-])c1cc([N+](=O)[O-])c(O)c([N+](=O)[O-])c1,inactive: -13%
7,O=[As](O)(c1ccccc1Br)c1ccccc1Br,inactive: -4.92%
8,CC(C)/C=N\N=C(\N)N[N+](=O)[O-],inactive: -16.7%
9,CN(C(=O)Cc1ccc(Cl)c(Cl)c1)[C@@H]1CCCC[C@H]1N1CCCC1,inactive: -8.6%
10,Clc1n[nH]nc1-c1nn[nH][15n]1,inactive: -0.846%
11,CCOP(=O)(Nc1ccc(C)cn1)OCC,inactive: -0.523%
12,O=[N+]([O-])c1cc([N+](=O)[O-])c(-n2nnc3ccccc32)c([N+](=O)[O-])c1,inactive: 0.145%
13,CCOP(=O)(NC(=NC(C)c1ccccc1)NC(C)c1ccccc1)OCC (stereo not given),inactive: -7.27%
14,O=P1(Nc2ccccn2)COc2ccccc2OC1,inactive: 0.382%
15,CCC1=CC2Cc3nc4ccc(Cl)cc4c(N)c3C(C1)C2 (stereo not given),inactive: 21.1%
16,Cc1ccc(OCC(=O)OC2CN3CCC2CC3)cc1 (stereo not given),inactive: -1.77%
17,O=[As](O)(c1cccs1)c1cccs1,inactive: 2.96%
18,O=P1(Nc2ccc(Br)cn2)COc2ccccc2OC1,inactive: 2.53%
19,CCCOc1ccc(NP(C)(=O)Oc2ccc(Cl)cc2)cc1 (stereo not given),inactive: -7.86%
20,Nc1cccc([As](=O)(O)c2ccccc2)c1,inactive: -5.9%
21,CP(=O)(Nc1ccc(SC(F)(F)F)cc1)Oc1ccccc1 (stereo not given),inactive: 4.44%
